Test results reported in patent US6277825A (priority 1999, dated 2001).

test system: not given; details: 37° C.; 50 μg/ml

Row | Compound | stability in biological media
1 | CC[C@H](C)[C@H](NC(=O)[C@H](CC(C)C)NC(=O)[C@H](CC(C(=O)O)C(=O)O)NC(=O)[C@H](CCC(N)=O)NC(=O)[C@H](CC(N)=O)NC(=O)[C@H](CC(C(=O)O)C(=O)O)NC(=O)[C@H](CCC(N)=O)NC(=O)[C@H](CC(C)C)NC(=O)[C@H](CC(C(=O)O)C(=O)O)NC(=O)[C@H](C)NC(=O)[C@H](CCC(=O)O)NC(=O)CN)C(=O)N[C@@H](CCCNC(=N)N)C(=O)N[C@@H](CC(C(=O)O)C(=O)O)C(=O)N[C@@H](CCCCN)C(=O)N[C@@H](CO)C(=O)N[C@@H](CC(N)=O)C(N)=O [A^3] | stable in all biological media for up to 4 hours

target: NMDA receptor; assay type: binding; details: not given

Row | Compound | IC50
2 | CC[C@H](C)[C@H](NC(=O)[C@H](CC(C)C)NC(=O)[C@H](C)NC(=O)[C@H](CCC(N)=O)NC(=O)[C@H](CC(N)=O)NC(=O)[C@H](C)NC(=O)[C@H](CCC(N)=O)NC(=O)[C@H](CC(C)C)NC(=O)[C@H](CC(C(=O)O)C(=O)O)NC(=O)[C@H](CC(C(=O)O)C(=O)O)NC(=O)[C@H](CCC(=O)O)NC(=O)CN)C(=O)N[C@@H](CCCNC(=N)N)C(=O)N[C@@H](C)C(=O)N[C@@H](CCCCN)C(N)=O [(A^7,10,14)1-15] | 34 nM
3 | CC[C@H](C)[C@H](NC(=O)[C@H](CC(C)C)NC(=O)[C@H](CCC(=O)O)NC(=O)[C@H](CCC(N)=O)NC(=O)[C@H](CC(N)=O)NC(=O)[C@H](CCC(=O)O)NC(=O)[C@H](CCC(N)=O)NC(=O)[C@H](CC(C)C)NC(=O)[C@H](CC(C(=O)O)C(=O)O)NC(=O)[C@H](CC(C(=O)O)C(=O)O)NC(=O)[C@H](CCC(=O)O)NC(=O)CN)C(=O)N[C@@H](CCCNC(=N)N)C(=O)N[C@@H](CCC(=O)O)C(=O)N[C@@H](CCCCN)C(=O)N[C@@H](CO)C(=O)N[C@@H](CC(N)=O)C(N)=O [E^7,10,4] | ≥ 20000 nM
4 | CC[C@H](C)[C@H](NC(=O)[C@H](CC(C)C)NC(=O)[C@H](CC(C(=O)O)C(=O)O)NC(=O)[C@H](CCC(N)=O)NC(=O)[C@H](CC(N)=O)NC(=O)[C@H](CC(C(=O)O)C(=O)O)NC(=O)[C@H](CCC(N)=O)NC(=O)[C@H](CC(C)C)NC(=O)[C@H](CC(C(=O)O)C(=O)O)NC(=O)[C@H](C)NC(=O)[C@H](CCC(=O)O)NC(=O)CN)C(=O)N[C@@H](CCCNC(=N)N)C(=O)N[C@@H](CC(C(=O)O)C(=O)O)C(=O)N[C@@H](CCCCN)C(=O)N[C@@H](CO)C(=O)N[C@@H](CC(N)=O)C(N)=O [A^3] | 9100 nM
5 | CC[C@H](C)[C@H](NC(=O)[C@H](CC(C)C)NC(=O)[C@H](C)NC(=O)[C@H](CCC(N)=O)NC(=O)[C@H](CC(N)=O)NC(=O)[C@H](C)NC(=O)[C@H](CCC(N)=O)NC(=O)[C@H](CC(C)C)NC(=O)[C@H](CC(C(=O)O)C(=O)O)NC(=O)[C@H](CC(C(=O)O)C(=O)O)NC(=O)[C@H](CCC(=O)O)NC(=O)CN)C(=O)N[C@@H](CCCNC(=N)N)C(=O)N[C@@H](C)C(N)=O [(A^7,10,14)1-14] | 232 nM
6 | CC[C@H](C)[C@H](NC(=O)[C@H](CC(C)C)NC(=O)[C@H](C)NC(=O)[C@H](CCC(N)=O)NC(=O)[C@H](CC(N)=O)NC(=O)[C@H](C)NC(=O)[C@H](CCC(N)=O)NC(=O)[C@H](CC(C)C)NC(=O)[C@H](CC(C(=O)O)C(=O)O)NC(=O)[C@H](CC(C(=O)O)C(=O)O)NC(=O)[C@H](CCC(=O)O)NC(=O)CN)C(=O)N[C@@H](CCCNC(=N)N)C(=O)N[C@@H](C)C(=O)N[C@@H](CCCCN)C(=O)N[C@@H](CO)C(=O)N[C@@H](CC(N)=O)C(N)=O [A^7,10,14] | 88 nM
7 | CC[C@H](C)[C@H](NC(=O)[C@H](CC(C)C)NC(=O)[C@H](CC(C(=O)O)C(=O)O)NC(=O)[C@H](CCC(N)=O)NC(=O)[C@H](CC(N)=O)NC(=O)[C@H](CC(C(=O)O)C(=O)O)NC(=O)[C@H](CCC(N)=O)NC(=O)[C@H](CC(C)C)NC(=O)[C@H](CC(C(=O)O)C(=O)O)NC(=O)[C@H](CO)NC(=O)[C@H](CCC(=O)O)NC(=O)CN)C(=O)N[C@@H](CCCNC(=N)N)C(=O)N[C@@H](CC(C(=O)O)C(=O)O)C(=O)N[C@@H](CCCCN)C(=O)N[C@@H](CO)C(=O)N[C@@H](CC(N)=O)C(N)=O [S^3] | 3600 nM
8 | CC[C@H](C)[C@H](NC(=O)[C@H](CC(C)C)NC(=O)[C@H](C)NC(=O)[C@H](CCC(N)=O)NC(=O)[C@H](CC(N)=O)NC(=O)[C@H](C)NC(=O)[C@H](CCC(N)=O)NC(=O)[C@H](CC(C)C)NC(=O)[C@H](CC(C(=O)O)C(=O)O)NC(=O)[C@H](CC(C(=O)O)C(=O)O)NC(=O)[C@H](CCC(=O)O)NC(=O)CN)C(=O)N[C@@H](CCCNC(=N)N)C(=O)N[C@@H](C)C(=O)N[C@@H](CCCCN)C(=O)N[C@@H](CO)C(N)=O [(A^7,10,14)1-16] | 37 nM
